This is an account of results in US7728040B1, “Polyamine conjugates as selective NMDA inhibitors and anti-cancer drugs” (University of Central Florids Research Foundation, Inc., priority 2002, dated 2010).

The series concerns B16 (melanoma) cells. Particulars: mouse.

Structures can show the parent of a compound that is named as a salt.

Regarding `CCCCNCc1c2ccccc2cc2ccccc12` [Compound 35, N^1-Anthracen-9-ylmethyl-butylamine Monohydrochloride], the “times more cytotoxic to melanoma B16 cells than normal melanocytes Mel-A” value is 0.7-2.3 fold.

As to `Cl.Cl.Cl.NCCCCN(CCCCN)Cc1c2ccccc2cc2ccccc12` [Compound 8e, N-(4-Amino-butyl)-N-anthracen-9-ylmethyl-butane-1,4-diamine, trihydrochloride], the “times more cytotoxic to melanoma B16 cells than normal melanocytes Mel-A” value is on record as 7.5-10.5 fold.
